Assay results: patent US20130130985A1 (published 2013)

By UniProt entry, the sequences of proteins in these tests, tags left out.
UniProt P37288, whole entry: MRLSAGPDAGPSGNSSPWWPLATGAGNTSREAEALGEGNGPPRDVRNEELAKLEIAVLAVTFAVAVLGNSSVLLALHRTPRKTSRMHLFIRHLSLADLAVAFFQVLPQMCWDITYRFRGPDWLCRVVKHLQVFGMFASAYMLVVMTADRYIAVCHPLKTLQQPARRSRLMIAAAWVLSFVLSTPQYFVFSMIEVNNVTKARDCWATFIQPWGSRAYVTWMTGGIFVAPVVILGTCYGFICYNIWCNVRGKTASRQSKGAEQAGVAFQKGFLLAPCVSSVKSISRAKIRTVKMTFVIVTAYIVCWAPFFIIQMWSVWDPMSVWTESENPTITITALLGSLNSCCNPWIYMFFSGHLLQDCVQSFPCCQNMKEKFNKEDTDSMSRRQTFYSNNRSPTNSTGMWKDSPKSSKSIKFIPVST

Assays:
hV1bR [1] = biological target: T1, hV1bR (Homo sapiens, UniProt P47901); assay: Functional IP-One HTRF assay; format: cell-based
T1 sequence (P47901 1-424): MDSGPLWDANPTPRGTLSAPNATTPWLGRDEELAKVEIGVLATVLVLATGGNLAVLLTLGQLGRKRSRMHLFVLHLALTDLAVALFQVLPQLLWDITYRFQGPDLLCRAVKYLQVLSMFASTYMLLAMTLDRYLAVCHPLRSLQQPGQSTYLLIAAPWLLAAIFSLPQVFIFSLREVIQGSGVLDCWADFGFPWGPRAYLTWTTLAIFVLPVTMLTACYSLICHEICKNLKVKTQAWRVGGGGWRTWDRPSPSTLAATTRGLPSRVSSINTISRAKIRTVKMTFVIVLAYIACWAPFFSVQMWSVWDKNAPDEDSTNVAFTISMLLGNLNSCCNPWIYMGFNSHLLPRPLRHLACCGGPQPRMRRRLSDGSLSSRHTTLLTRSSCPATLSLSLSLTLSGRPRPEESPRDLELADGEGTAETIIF

hV1bR [2] = biological target: T1, hV1bR; assay: Functional FLIPR assay (calcium signalling); format: cell-based; settings: for Emax: read-out: hV1bR Emax
hV1bR [3] = biological target: T1, hV1bR; assay: Radioligand binding assay, displacement of 3H-AVP, COS-1 membranes
hV2R [4] = biological target: T2, hV2R (Homo sapiens, UniProt P30518); assay: Radioligand binding assay, displacement of 3H-AVP, HEK293 membranes
hOTR [5] = biological target: T3, hOTR (Homo sapiens, UniProt P30559); assay: Radioligand binding assay, displacement of 3H-OT, COS-1 membranes
T3 sequence (P30559 1-389): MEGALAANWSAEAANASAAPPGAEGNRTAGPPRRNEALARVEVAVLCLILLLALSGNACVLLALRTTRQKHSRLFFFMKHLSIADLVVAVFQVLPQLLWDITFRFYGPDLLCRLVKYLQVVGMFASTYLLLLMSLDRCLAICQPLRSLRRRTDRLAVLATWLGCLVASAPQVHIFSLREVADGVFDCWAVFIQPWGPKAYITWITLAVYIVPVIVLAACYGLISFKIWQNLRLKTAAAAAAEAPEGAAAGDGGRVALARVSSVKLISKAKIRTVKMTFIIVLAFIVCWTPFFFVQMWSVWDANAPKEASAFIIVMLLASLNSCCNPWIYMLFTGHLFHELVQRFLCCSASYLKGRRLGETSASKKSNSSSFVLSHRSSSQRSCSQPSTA

hV1aR [6] = biological target: T4, hV1aR (Homo sapiens, UniProt P37288); assay: Functional IP-One HTRF assay; format: cell-based; settings: for Emax: read-out: hV1aR Emax
hV1aR [7] = biological target: T4, hV1aR; assay: Functional FLIPR assay (calcium signalling); format: cell-based
hOTR [8] = biological target: T3, hOTR; assay: Functional IP-One HTRF assay; format: cell-based; settings: for Emax: read-out: hOTR Emax
hOTR [9] = biological target: T3, hOTR; assay: Functional FLIPR assay (calcium signalling); format: cell-based; settings: for Emax: read-out: hOTR Emax
hV2R [10] = biological target: T2, hV2R; assay: Functional cAMP accumulation assay; format: cell-based
[11] = Stability assay in rat plasma and human serum (metabolic half life)

SMILES | Emax (hV1bR [2]) [%] | EC50 (hV1aR [6]) [nM] | EC50 (hV1aR [7]) [nM] | Emax (hOTR [8]) [%] | Emax (hOTR [9]) [%] | Emax (hV1aR [6]) [%] | further results
CC[C@H](C)[C@@H]1NC(=O)[C@H](Cc2ccc(O)cc2)NC(=O)[C@@H](N)C[Se][Se]C[C@@H](C(=O)N2CCC[C@H]2C(=O)N[C@@H](CC(C)C)C(=O)NCC(N)=O)NC(=O)[C@H](CC(N)=O)NC(=O)[C@H](CCC(N)=O)NC1=O [[Se—Se]-OT, [C1,6U]-OT] | 82 |  |  |  |  |  | EC50 (hV1bR [1]; hV1bR EC50, IP-One assay, COS-1): 510 ± 172 nM; Emax (hV1bR [1]; read-out: hV1bR Emax): 103 ± 12%; EC50 (hV1bR [2]): 7.75 nM; IC50 (hV1bR [3]): 1760 ± 188 nM; IC50 (hV2R [4]): 3350 ± 804 nM
CC[C@H](C)[C@@H]1NC(=O)[C@H](Cc2ccc(O)cc2)NC(=O)[C@@H](N)C[Te][Te]C[C@@H](C(=O)N2CCC[C@H]2C(=O)N[C@@H](CC(C)C)C(=O)NCC(N)=O)NC(=O)[C@H](CC(N)=O)NC(=O)[C@H](CCC(N)=O)NC1=O [[Te—Te]-OT, [Cys1,6Tec]-Oxytocin] |  | > 10000 | 4280 ± 3380 | 98 | 86 |  | IC50 (hOTR [5]): 8 nM; EC50 (hOTR [8]): 13.3 ± 11 nM; EC50 (hOTR [9]): 11.3 ± 7.5 nM
CC[C@H](C)[C@@H]1NC(=O)[C@H](Cc2ccc(O)cc2)NC(=O)[C@@H](N)CS[Se]C[C@@H](C(=O)N2CCC[C@H]2C(=O)N[C@@H](CC(C)C)C(=O)NCC(N)=O)NC(=O)[C@H](CC(N)=O)NC(=O)[C@H](CCC(N)=O)NC1=O [[S—Se]-OT, [C6U]-OT] | 73 |  |  | 55 ± 9 | 82 | 67 ± 20 | 
CC[C@H](C)[C@@H]1NC(=O)[C@H](Cc2ccc(O)cc2)NC(=O)[C@@H](N)C[Se][Se]C[C@@H](C(=O)N2CCC[C@H]2C(=O)N[C@@H](CC(C)C)C(=O)NCC(=O)O)NC(=O)[C@H](CC(N)=O)NC(=O)[C@H](CCC(N)=O)NC1=O [[Se—Se]-OT-OH, [C1,6U]-OT-OH] |  | > 100000 | > 100000 |  |  |  | EC50 (hV2R [10]; hV2R EC50, cAMP assay, HEK293): 495 nM; Emax (hV2R [10]; read-out: hV2R Emax): 114 ± 46%
CC[C@H](C)[C@@H]1NC(=O)[C@H](Cc2ccc(O)cc2)NC(=O)[C@@H](N)C[Se]SC[C@@H](C(=O)N2CCC[C@H]2C(=O)N[C@@H](CC(C)C)C(=O)NCC(N)=O)NC(=O)[C@H](CC(N)=O)NC(=O)[C@H](CCC(N)=O)NC1=O [[Se—S]-OT, [C1U]-OT] | 82 |  |  | 84 ± 6 | 85 | 96 ± 19 | Emax (hV1aR [7]; read-out: hV1aR Emax): 90%; half-life at 0.043 mM [11]: 18.6 ± 3 h
